In US9394282B2, “Pyrazole carboxamides as Janus kinase inhibitors” (Merck Sharp & Dohme Corp., priority 2011, dated 2016):
pIC50: −log10 of the molar value.

Protein sequences, listed by entry. Tags and fused reporters are not part of them. Residues count along the entry.
UniProt O60674, 849-1124: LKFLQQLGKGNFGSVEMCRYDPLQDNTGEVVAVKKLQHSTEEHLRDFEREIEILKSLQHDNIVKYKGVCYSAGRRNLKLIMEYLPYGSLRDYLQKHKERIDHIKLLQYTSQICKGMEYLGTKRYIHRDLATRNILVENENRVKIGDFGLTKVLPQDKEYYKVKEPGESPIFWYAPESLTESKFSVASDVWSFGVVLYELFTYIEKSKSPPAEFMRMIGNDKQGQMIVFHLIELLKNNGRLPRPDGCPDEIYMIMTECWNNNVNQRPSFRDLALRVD
UniProt P23458, 875-1153: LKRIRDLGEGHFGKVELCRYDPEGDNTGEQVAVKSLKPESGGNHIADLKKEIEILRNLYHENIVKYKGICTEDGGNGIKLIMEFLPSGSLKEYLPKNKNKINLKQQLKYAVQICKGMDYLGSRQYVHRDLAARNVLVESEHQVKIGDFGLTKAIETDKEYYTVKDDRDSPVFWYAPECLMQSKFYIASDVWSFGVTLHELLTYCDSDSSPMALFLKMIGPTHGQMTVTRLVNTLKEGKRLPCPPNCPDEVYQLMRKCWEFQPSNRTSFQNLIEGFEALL

Molecular target: JAK2 (Homo sapiens (Human), UniProt O60674)
Test: Jak biochemical HTRF assay, JAK2
Conditions: recombinant purified GST-tagged catalytic domain; HTRF format; [ATP] 8.5 μM
From the text: (§1) Jak Biochemical HTRF Assay Protocol
(§2) Subsequent reagent additions employed an Agilent Bravo.

`COC1CC(CN2CC[C@@H](n3cc(C(N)=O)c(Nc4ccc(F)cc4)n3)[C@H](C#N)C2)C1` (mixture of isomers) [Example 6-30, 1-{(3R,4R and 3S,4S)-3-cyano-1-[(3-methoxycyclobutyl)methyl]piperidin-4-yl}-3-[(4-fluorophenyl)amino]-1H-pyrazole-4-carboxamide] and `CCOC(=O)N1CC[C@@H](n2cc(C(N)=O)c(Nc3ccc(F)cc3)n2)[C@H](C#N)C1` (racemic) [Example 5-23, ethyl (3R,4R and 3S,4S)-4-{4-carbamoyl-3-[(4-fluorophenyl)amino]-1H-pyrazol-1-yl}-3-cyanopiperidine-1-carboxylate] are within 0.2 log units of each other in pIC50: 6.78 for the first, 6.80 for the second.

Going from `N#C[C@@H]1CCN(Cc2cncs2)C[C@H]1n1cc(C(N)=O)c(Nc2ccc(F)cc2)n1` (racemic) [Example 7-1, 1-[(3S,4R and 3R,4S)-4-Cyano-1-(1,3-thiazol-5-ylmethyl)piperidin-3-yl]-3-[(4-fluorophenyl)amino]-1H-pyrazole-4-carboxamide] to `N#C[C@@H]1CCN(Cc2cccnc2F)C[C@H]1n1cc(C(N)=O)c(Nc2ccc(F)cc2)n1` (racemic) [Example 6-17, 1-{(3S,4R and 3R,4S)-4-cyano-1-[(2-fluoropyridin-3-yl)methyl]piperidin-3-yl}-3-[(4-fluorophenyl)amino]-1H-pyrazole-4-carboxamide], the pIC50 falls from 8.22 to 7.92 (0.30 log units). The first is the more potent here.

`N#C[C@@H]1CN(C(=O)OCC(F)(F)F)CC[C@H]1n1cc(C(N)=O)c(Nc2ccc(F)cc2)n1` (racemic) [Example 5-28, 2,2,2-trifluoroethyl (3R,4R and 3S,4S)-4-{4-carbamoyl-3-[(4-fluorophenyl)amino]-1H-pyrazol-1-yl}-3-cyanopiperidine-1-carboxylate] and `CC(C)(C#N)COC(=O)N1CC[C@@H](n2cc(C(N)=O)c(Nc3ccc(F)cc3)n2)[C@H](C#N)C1` (racemic) [Example 5-6, 2-cyano-2-methylpropyl (3R,4R and 3S,4S)-4-{4-carbamoyl-3-[(4-fluorophenyl)amino]-1H-pyrazol-1-yl}-3-cyanopiperidine-1-carboxylate] are within 0.2 log units of each other in pIC50: 6.57 for the first, 6.39 for the second.

`N#C[C@H]1CCOC[C@@H]1n1cc(C(N)=O)c(Nc2ccc(Cl)c(Cl)c2)n1` (single isomer, unassigned) [Example 9-10, 1-[(3R,4S or 3S,4R)-4-cyanotetrahydro-2H-pyran-3-yl]-3-[(3,4-dichlorophenyl)amino]-1H-pyrazole-4-carboxamide] gave a pIC50 of 6.61.

Molecular target: JAK1 (Homo sapiens (Human), UniProt P23458)
Test: Jak biochemical HTRF assay, JAK1
Conditions: recombinant purified GST-tagged catalytic domain; HTRF format; [ATP] 31.8 μM
From the text: as §1, §2

Compared with `CN(C)C(=O)c1ccc(Nc2nn([C@H]3COCC[C@@H]3C#N)cc2C(N)=O)cc1` (single isomer, unassigned) [Example 9-34, 1-[(3R,4S or 3S,4R)-4-cyanotetrahydro-2H-pyran-3-yl]-3-{[4-(dimethylcarbamoyl)phenyl]amino}-1H-pyrazole-4-carboxamide], `N#C[C@H]1CCOC[C@@H]1n1cc(C(N)=O)c(Nc2ccc(Cl)nc2)n1` (single isomer, unassigned) [Example 9-27, 3-[(6-chloropyridin-3-yl)amino]-1-[(3R,4S or 3S,4R)-4-cyanotetrahydro-2H-pyran-3-yl]-1H-pyrazole-4-carboxamide] is 2.79 log units lower in pIC50: 10.30 for the first, 7.51 for the second.

Compared with `C#CCCOC(=O)N1CC[C@@H](n2cc(C(N)=O)c(Nc3ccc(F)cc3)n2)[C@H](C#N)C1` (racemic) [Example 5-34, but-3-yn-1-yl (3R,4R and 3S,4S)-4-{4-carbamoyl-3-[(4-fluorophenyl)amino]-1H-pyrazol-1-yl}-3-cyanopiperidine-1-carboxylate], `C#CCCOC(=O)N1CC[C@H](n2cc(C(N)=O)c(Nc3ccc(F)cc3)n2)[C@H](C#N)C1` (racemic) [Example 5-40, but-3-yn-1-yl (3R,4S and 3S,4R)-4-{4-carbamoyl-3-[(4-fluorophenyl)amino]-1H-pyrazol-1-yl}-3-cyanopiperidine-1-carboxylate] is 1.37 log units lower in pIC50: 8.05 for the first, 6.68 for the second.

Compared with `CC(C)COC(=O)N1CC[C@H](n2cc(C(N)=O)c(Nc3ccc(F)cc3)n2)[C@H](C#N)C1` (racemic) [Example 5-56, 2-methylpropyl (3R,4S and 3S,4R)-4-{4-carbamoyl-3-[(4-fluorophenyl)amino]-1H-pyrazol-1-yl}-3-cyanopiperidine-1-carboxylate], `CC(C)COC(=O)N1CC[C@@H](n2cc(C(N)=O)c(Nc3ccc(F)cc3)n2)[C@H](C#N)C1` (racemic) [Example 5-10, 2-methylpropyl (3R,4R and 3S,4S)-4-{4-carbamoyl-3-[(4-fluorophenyl)amino]-1H-pyrazol-1-yl}-3-cyanopiperidine-1-carboxylate] is 1.18 log units higher in pIC50: 6.30 for the first, 7.48 for the second.

Going from `N#C[C@@H]1CN(C(=O)OCCC2CC2)CC[C@@H]1n1cc(C(N)=O)c(Nc2ccc(F)cc2)n1` (racemic) [Example 5-41, 2-cyclopropylethyl (3R,4S and 3S,4R)-4-{4-carbamoyl-3-[(4-fluorophenyl)amino]-1H-pyrazol-1-yl}-3-cyanopiperidine-1-carboxylate] to `N#C[C@@H]1CN(C(=O)OCC2CC2)CC[C@H]1n1cc(C(N)=O)c(Nc2ccc(F)cc2)n1` (racemic) [Example 5-30, cyclopropylmethyl (3R,4R and 3S,4S)-4-{4-carbamoyl-3-[(4-fluorophenyl)amino]-1H-pyrazol-1-yl}-3-cyanopiperidine-1-carboxylate], the pIC50 rises from 6.40 to 7.92 (1.52 log units).

Compared with `CC1(COC(=O)N2CC[C@H](n3cc(C(N)=O)c(Nc4ccc(F)cc4)n3)[C@H](C#N)C2)CC1` (racemic) [Example 5-62, (1-methylcyclopropyl)methyl (3R,4S and 3S,4R)-4-{4-carbamoyl-3-[(4-fluorophenyl)amino]-1H-pyrazol-1-yl}-3-cyanopiperidine-1-carboxylate], `CC1(COC(=O)N2CC[C@@H](n3cc(C(N)=O)c(Nc4ccc(F)cc4)n3)[C@H](C#N)C2)CC1` (racemic) [Example 5-9, (1-methylcyclopropyl)methyl (3R,4R and 3S,4S)-4-{4-carbamoyl-3-[(4-fluorophenyl)amino]-1H-pyrazol-1-yl}-3-cyanopiperidine-1-carboxylate] is 1.05 log units higher in pIC50: 6.29 for the first, 7.34 for the second.

`CC1(COC(=O)N2CC[C@@H](n3cc(C(N)=O)c(Nc4ccc(F)cc4)n3)[C@H](C#N)C2)COC1` (racemic) [Example 5-33, (3-methyloxetan-3-yl)methyl (3R,4R and 3S,4S)-4-{4-carbamoyl-3-[(4-fluorophenyl)amino]-1H-pyrazol-1-yl}-3-cyanopiperidine-1-carboxylate] and `CN(C)CCOC(=O)N1CC[C@@H](n2cc(C(N)=O)c(Nc3ccc(F)cc3)n2)[C@H](C#N)C1` (racemic) [Example 5-22, 2-(dimethylamino)ethyl (3R,4R and 3S,4S)-4-{4-carbamoyl-3-[(4-fluorophenyl)amino]-1H-pyrazol-1-yl}-3-cyanopiperidine-1-carboxylate] are within 0.2 log units of each other in pIC50: 7.55 for the first, 7.60 for the second.

Going from `N#C[C@H]1CCOC[C@@H]1n1cc(C(N)=O)c(Nc2ccc(C(F)F)nc2)n1` (single isomer, unassigned) [Example 9-32, 1-[(3R,4S or 3S,4R)-4-cyanotetrahydro-2H-pyran-3-yl]-3-{[6-(difluoromethyl)pyridin-3-yl]amino}-1H-pyrazole-4-carboxamide] to `N#C[C@@H]1CN(Cc2ncco2)CC[C@H]1n1cc(C(N)=O)c(Nc2ccc(F)cc2)n1` (racemic) [Example 6-29, 1-[(3R,4R and 3S,4S)-3-cyano-1-(1,3-oxazol-2-ylmethyl)piperidin-4-yl]-3-[(4-fluorophenyl)amino]-1H-pyrazole-4-carboxamide], the pIC50 rises from 7.42 to 8.30 (0.88 log units).

`N#C[C@@H]1CN(C(=O)OCc2ccccc2)CC[C@H]1n1cc(C(N)=O)c(Nc2ccc(F)cc2)n1` (racemic) [Example 5-12, benzyl (3R,4R and 3S,4S)-4-{4-carbamoyl-3-[(4-fluorophenyl)amino]-1H-pyrazol-1-yl}-3-cyanopiperidine-1-carboxylate] and `COCCCOC(=O)N1CC[C@@H](n2cc(C(N)=O)c(Nc3ccc(F)cc3)n2)[C@H](C#N)C1` (racemic) [Example 5-32, 3-methoxypropyl (3R,4R and 3S,4S)-4-{4-carbamoyl-3-[(4-fluorophenyl)amino]-1H-pyrazol-1-yl}-3-cyanopiperidine-1-carboxylate] are within 0.2 log units of each other in pIC50: 7.82 for the first, 7.92 for the second.

Compared with `CN1CCN(CCOC(=O)N2CC[C@@H](n3cc(C(N)=O)c(Nc4ccc(F)cc4)n3)[C@H](C#N)C2)CC1` (racemic) [Example 5-24, 2-(4-methylpiperazin-1-yl)ethyl (3R,4R and 3S,4S)-4-{4-carbamoyl-3-[(4-fluorophenyl)amino]-1H-pyrazol-1-yl}-3-cyanopiperidine-1-carboxylate], `N#C[C@@H]1CCN(CC2CCC2)C[C@H]1n1cc(C(N)=O)c(Nc2ccc(F)cc2)n1` (racemic) [Example 6-12, 1-[(3S,4R and 3R,4S)-4-cyano-1-(cyclobutylmethyl)piperidin-3-yl]-3-[(4-fluorophenyl)amino]-1H-pyrazole-4-carboxamide] is 0.88 log units higher in pIC50: 7.42 for the first, 8.30 for the second.

Going from `N#C[C@@H]1CCN(Cc2cc(F)ccn2)C[C@H]1n1cc(C(N)=O)c(Nc2ccc(F)cc2)n1` (racemic) [Example 6-7, 1-{(3S,4R and 3R,4S)-4-cyano-1-[(4-fluoropyridin-2-yl)methyl]piperidin-3-yl}-3-[(4-fluorophenyl)amino]-1H-pyrazole-4-carboxamide] to `CCn1ccnc1CN1CC[C@@H](C#N)[C@H](n2cc(C(N)=O)c(Nc3ccc(F)cc3)n2)C1` (racemic) [Example 6-19, 1-{(3S,4R and 3R,4S)-4-cyano-1-[(1-ethyl-1H-imidazol-2-yl)methyl]piperidin-3-yl}-3-[(4-fluorophenyl)amino]-1H-pyrazole-4-carboxamide], the pIC50 rises from 8.40 to 8.70 (0.30 log units). The second is the more potent here.

Compound `N#C[C@@H]1CN(Cc2cscn2)CC[C@H]1n1cc(C(N)=O)c(Nc2ccc(F)cc2)n1` (racemic) [Example 6-27, 1-[(3R,4R and 3S,4S)-3-cyano-1-(1,3-thiazol-4-ylmethyl)piperidin-4-yl]-3-[(4-fluorophenyl)amino]-1H-pyrazole-4-carboxamide] has a pIC50 of 8.30.
